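Exposure lasted 48 hours, with cells grown in 96-well plates and compounds tested at five concentrations. GI50 is the concentration that inhibits growth by half.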
Tests used:
Assay in all cases: NCI tumour cell line growth inhibition, 48 h; in the data active = GI50 below about 0.43 µM; inactive = the rest
HCT-116 colon = test system: HCT-116 colon
MCF7 breast = test system: MCF7 breast
MDA-MB-231 breast = test system: MDA-MB-231 breast
NCI/ADR-RES ovarian = test system: NCI/ADR-RES ovarian

Measured: GI50

C[C@@H]1CCOC(=O)/C=C/C=C\C(=O)O[C@@H]2C[C@H]3O[C@@H]4[C@@H]5OC5(C)CCC4(COC(=O)[C@H]1O)[C@]2(C)[C@@]31CO1 (some centres undefined)
inactive: HCT-116 colon 3.53 µM | MCF7 breast 12.9 µM | MDA-MB-231 breast 0.624 µM | NCI/ADR-RES ovarian 14.2 µM

From PubChem BioAssay (NCI)
